According to patent publication US20080279924A1, “HLA class I A2 tumor associated antigen peptides and vaccine compositions” (priority 1999, published 2008):

Test system: PBMC from healthy donors
Type: cell-based, human

aKXVAAWTLKAAa-NH2 [PADRE]
potency relative to TT 830-843 antigen for activation of T cell responses: about 100 fold
